# Data published in patent US20250115658A1 (FBD BIOLOGICS, published 2025).
# Columns and labels:
# Human PD-L1-ECD-His [1] = biological target: T1, Human PD-L1-ECD-His (human); assay: Octet Red96 BLI, pH7.4; fold of affinity against PD1-Fc-wt1
# T1 construct: Bought (Sino cat. no. I-10084-H08H); not shown: His tag
# [2] = biological target: T2, PD-L1 on PD-L1 transfected CHO-S cells (human); assay: flow cytometry on PDL1 transfected CHO-S cells, goat anti-human Fc PE detection, pH6.0
# T2 construct: also called PD-L1 tf CHO-S cells
# Human PD-L1-ECD-His [3] = biological target: T1, Human PD-L1-ECD-His; assay: Octet Red96 BLI, PDL1-ECD-His loaded on anti-Penta-HIS (HIS1K) biosensor, PD1-Fc protein as analyte, 1:1 model, pH6.0; pH 6
# Human PD-L1-ECD-His [4] = biological target: T1, Human PD-L1-ECD-His; assay: Octet Red96 BLI, PDL1-ECD-His loaded on anti-Penta-HIS (HIS1K) biosensor, PD1-Fc protein as analyte, 1:1 model, pH7.4; pH 7.4
# Human PD-L1-ECD-His [5] = biological target: T1, Human PD-L1-ECD-His; assay: Octet Red96 BLI, PDL1-ECD-His loaded on anti-Penta-HIS (HIS1K) biosensor, PD1-Fc protein as analyte, 1:1 model, pH6.0; column head kdis(1/s); pH 6
# Human PD-L1-ECD-His [6] = biological target: T1, Human PD-L1-ECD-His; assay: Octet Red96 BLI, pH6.0; fold of affinity against PD1-Fc-wt1
# Human PD-L1-ECD-His [7] = biological target: T1, Human PD-L1-ECD-His; assay: Octet Red96 BLI, PDL1-ECD-His loaded on anti-Penta-HIS (HIS1K) biosensor, PD1-Fc protein as analyte, 1:1 model, pH7.4; column head kdis(1/s); pH 7.4
binder,measurement,setting,value
"PD1-Fc-WT1 (Fc fusion, also called biotin-PD1-Fc-WT1; hPD-1-Fc (wild type); not shown: human IgG4 hinge and Fc) DSPDRPWNPPTFSPALLVVTEGDNATFTCSFSNTSESFVLNWYRMSPSNQTDKLAAFPEDRSQPGQDCRFRVTQLPNGRDFHMSVVRARRNDSGTYLCGAISLAPKAQIKESLRAELRVTERRAEVPTAHPSPSPRPAGQFQTLV",Fold,Human PD-L1-ECD-His [1],1
same,EC50 (read off the curve),[2],~5 mg/L
same,Kd,Human PD-L1-ECD-His [3],0.0179 µM
same,kon,Human PD-L1-ECD-His [3],646000 M⁻¹ s⁻¹
same,Kd,Human PD-L1-ECD-His [4],0.01 µM
same,kon,Human PD-L1-ECD-His [4],1.01e+06 M⁻¹ s⁻¹
same,koff,Human PD-L1-ECD-His [5],0.0116 s⁻¹
same,Fold,Human PD-L1-ECD-His [6],1
same,koff,Human PD-L1-ECD-His [7],0.0101 s⁻¹
